Eleven molecules from patent US11098113B2, “Immunoglobulin single variable domains directed against macrophage migration inhibitory factor” (VIB VZW, priority 2016, dated 2021) can be followed below.

The target of assay [1] is T1, recombinant mouse MIF (rmMIF) (Mus musculus, UniProt P34884).
T1 construct: purchased R&D systems
Briefly: Surface plasmon resonance, binding to immobilized mouse MIF. Particulars: SPR, mouse MIF immobilised on CM5 chip, 1:1 Langmuir model. The method, then: (§1) Surface plasmon resonance (SPR) experiments were performed on a BIAcore T200 system (GE Healthcare). Recombinant mouse MIF (rmMIF) or rhMIF (R&D systems) was immobilized on a CM5 chip (GE Healthcare). Briefly, the carboxylated dextran matrix was activated by injection of 0.2 M N-ethyl-N′-(3-diethylaminopropyl) carbodiimide (EDC) and 0.05 M N-hydroxysuccinimide (NHS) at a flow rate of 5 μl/min for 7 min. A rmMIF solution of 5 μg/ml prepared in coupling buffer (50 mM sodium acetate pH 4.0) was subsequently injected until 200 R.U. was immobilised. Next, the surface immobilisation was blocked by injection of 1 M ethanolamine hydrochloride for 7 min. As a reference, the surface in another flow cell was used and treated only with EDC, NHS, and ethanolamine. Data for the rmMIF-ISVD interaction were collected in the format of a kinetic titration (27). Sensorgrams for the anti-mMIF ISVDs/ISVD-constructs were collected at five different concentrations (½ serial dilution starting from 100, 150, 200 or 750 nM) plus a 0 concentration (injection of running buffer, i.e. HBS [10 mM Hepes (pH 7.5), 150 mM NaCl, 3.5 mM EDTA, 0.005% (v/v) Tween-20]) at a flow rate of 30 μl/min and a data collection rate of 10 Hz. Analyte injections were performed with association phases of 180 s and a dissociation phase of 600 s. This was followed by 5 pulses of 15 μl regeneration buffer (HBS+100 mM NaOH). Prior to data analysis, reference and zero concentration data were subtracted from the sensorgrams. The data were analyzed with a 1:1 Langmuir binding model (27). Data for the rhMIF-ISVD interaction were collected as described elsewhere (28) and analyzed with a 1:1 Langmuir binding model.
(In general: In SPR one partner is held on a chip, and binding of the other changes the refractive index at the surface.)

For assay [2], the target named is T2, rhMIF (recombinant human MIF) (Homo sapiens, UniProt P14174).
T2 construct: recombinant human MIF^2-115 (rhMIF, R&D Systems); purchased R&D systems
T2 sequence (P14174 2-115): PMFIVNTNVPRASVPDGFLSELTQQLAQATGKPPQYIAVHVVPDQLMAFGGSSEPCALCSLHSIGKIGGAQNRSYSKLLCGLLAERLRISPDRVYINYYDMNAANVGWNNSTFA
Briefly: Surface plasmon resonance, binding to human MIF. Particulars: SPR, 1:1 Langmuir model. How it is done:
as §1

Assay [3] has as its system LPS stimulated RAW264.7 macrophages. Briefly: TNF production by LPS stimulated RAW264.7 macrophages. It is filed as cell-based, murine. To be noted: RAW264.7, LPS, ISVD at a concentration of 0.5-1.67 μM. The method, then: FIG. 1: Inhibition of MIF's biological activities by anti-MIF ISVDs (indicated as “Nb”). […] Briefly, cells were treated with 500 nM of each anti-MIF ISVD and an irrelevant ISVD was used as a negative control. After 18 hours of incubation, cell culture supernatants were collected for the determination of TNF concentration. Data is shown as the mean±SEM. Statistical analysis was performed by comparing TNF levels of ISVD-treated LPS-stimulated cells to levels of untreated LPS-stimulated cells. The dotted line represents TNF levels (cut-off level) of mice stimulated with LPS alone. D) Inhibition of MIF D-dopachrome tautomerase activity by anti-MIF ISVDs. ISO-1 was used as positive control. The activity was determined by the semi-continuous reduction in signal (tautomerization) measured at OD450nm in the presence and absence of anti-MIF ISVDs. The % activity was expressed in relationship to the tautomerase activity of rmMIF alone. The dotted line represents 100% activity (i.e. when only MIF was used). […]
Experiments were performed using either the human monocytic cell line THP-1 (ATCC), the murine macrophage cell line RAW264.7 (ATCC) or human peripheral blood monocytic cells (PBMC's) ex vivo peritoneal exudates cells (PECs). […] Finally, the cells were resuspended in ME medium, counted and brought at a concentration of 5*10^5/ml (stock solution). […]

B1: C10: anti-MIF immunoglobulin single variable domain, Family II, SEQ ID NO: 10 (protein)
VHH: EVQLVESGGGLVQAGGSLRLSCAASGRTSSIVAIGWFRQAPGKEREFVSNIGWKFGSTVYVDSVKGRFTISKDNAKNTVYLQMNSLKPEDTAVYRCAARSDGRVYDSWGQGTQVTVSS
modifications: Nanobody Sequence
For B1, the results for the Kon in assay [1] and in assay [2] were 1.63 10^5M^−1s^−1 and 0.38 10^5M^−1s^−1, respectively.

B2: B5: anti-MIF immunoglobulin single variable domain, Family I, SEQ ID NO: 11 (protein)
VHH: EVQLVESGGGLVQAGGSLRLSCAASGRSFSNYIMGWFRQAPGKEREFVANISWNYGTTFYADSVKGRFTISGDSAKNTVYLQMTSLKPEDTAVYYCAARPVRGGRNFDYWGQGTQVTVSS
modifications: Nanobody Sequence
As to B2, the Kon is listed as 1.42 10^5M^−1s^−1 in assay [1] and 0.41 10^5M^−1s^−1 in assay [2].

B3: E5: anti-MIF immunoglobulin single variable domain, Family V, SEQ ID NO: 3 (protein)
VHH: EVQLVESGGGLVHAGGSLRLSCAASGRTFSSYFMGWFRQAPGKAREFVANINFSGGTTVYASSVKGRFTISRDNSKNTVYLQMNSVKPEDTAVYYCVARGLTQDYDYWGQGTQVTVSS
modifications: Nanobody Sequence
Take B3: the results for the Kon in assay [1] and in assay [2] were 1.63 10^5M^−1s^−1 and 0.78 10^5M^−1s^−1, respectively. Further, the TNF reduction in assay [3] is 50%.

B4: H9: anti-MIF immunoglobulin single variable domain, Family V, SEQ ID NO: 4 (protein)
VHH: EVQLVESGGGLVHAGGSLRLSCAASGRTSSTYFMGWFRQAPGKAREFVANINFSGGTTVYASSVKGRFTISRDNSKNTVYLQLNSVKPEDTAVYYCSARGLNQEYDFWGQGTQVTVSS
modifications: Nanobody Sequence
As for B4, the Kon in assay [1] is 0.70 10^5M^−1s^−1; in assay [2], 0.32 10^5M^−1s^−1.

B5: D12: anti-MIF immunoglobulin single variable domain, Family VI, SEQ ID NO: 2 (protein)
VHH: EVQLVESGGGLVQAGGSLRLSCAASGRTISSYIVGWFRQAPGKEREFVANIGWSGSMPLYADSVKGRFTIFRDNAKNTVYLEMNKLKPEDTAVYYCAARGAGQLTNDYWGQGTQVTVSS
modifications: Nanobody Sequence
Regarding B5, the Kon in assay [1] is recorded as 0.59 10^5M^−1s^−1; in assay [2] it was 0.18 10^5M^−1s^−1.

B6: E10-E10: bivalent ISVD E10 construct, SEQ ID NO: 120 (protein)
chain: EVQLVESGGGSVQAGDSLRLSCAASGRTLSNSIMGWFRQAPGKEREFVANINWSGTSRLYADSVKGRFTISRDNTKSTVYLQMNSLKPEDTAIYYCAARSSTMSATDYWGQGTQVTVSSGGGGSGGGSEVQLVESGGGSVQAGDSLRLSCAASGRTLSNSIMGWFRQAPGKEREFVANINWSGTSRLYADSVKGRFTISRDNTKSTVYLQMNSLKPEDTAIYYCAARSSTMSATDYWGQGTQVTVSS
modifications: Fusion protein
Take B6: the Kon in assay [1] is 3.51 10^5M^−1s^−1.

B7: D2: anti-MIF immunoglobulin single variable domain, Family III, SEQ ID NO: 7 (protein)
VHH: EVQLVESGGGLVQDGGSLRLSCAASGRTASIHTMGWFRQAPGQERGFVGNIGWNYGLTLYADSVKGRFTISRDNAKNTVYLQMNNLKPEDTAVYYCAARIGTTPYDYWGQGTQVTVSS
modifications: Nanobody Sequence
With B7, the Kon was 1.51 10^5M^−1s^−1 in assay [1] and 0.75 10^5M^−1s^−1 in assay [2].

B8: D4: anti-MIF immunoglobulin single variable domain, Family III, SEQ ID NO: 8 (protein)
VHH: KVQLVESGGGLVQDGGSLRLSCAASGRTASIQVMGWFRQAPGKEREFVGNIGWNYGLTLYPDSVKGRFTISRDNAKNTVYLQMNNLKPEDTAVYYCAARIGTTTYDYWGQGTQVTVSS
modifications: Nanobody Sequence
As to B8, the Kon in assay [1] is listed as 0.99 10^5M^−1s^−1; in assay [2] it was 0.44 10^5M^−1s^−1.

B9: F10: anti-MIF immunoglobulin single variable domain, Family III, SEQ ID NO: 9 (protein)
VHH: EVQLVESGGGLVQDGGSLRLSCAASGRTASIQVMGWFRQAPGKEREFVGNIGWNYGLTLYPDSVKGRFTISRGNAKNAVYLQMNNLKPEDTAVYYCAARIGTTTYDYWGQGTQVTVSS
modifications: Nanobody Sequence
Turning to B9, the Kon in assay [1] was 0.19 10^5M^−1s^−1.

B10: A2: anti-MIF immunoglobulin single variable domain, Family III, SEQ ID NO: 6 (protein)
VHH: EVQLVESGGGLVQDGGSLRLSCAASGRTASIQVMGWFRQAPGKEREFVGNIGWNYGLTLYADPVKGRFTISRDNAKNTVYLQMNNLKPEDTAVYYCAARIGTITYDYWGQGTQVTVSS
modifications: Nanobody Sequence
On to B10, for which the Kon in assay [1] is given as 1.43 10^5M^−1s^−1; in assay [2] it was 3.11 10^5M^−1s^−1.

B11: H5: anti-MIF immunoglobulin single variable domain, Family IV, SEQ ID NO: 5 (protein)
VHH: EVQLVESGGGLVQPGGSLRLSCVASGFTFRTYAMSWVRQAPGKGSEWVSTINNGGGVTGYADSVEGRFTISRDNAKNTLYLQMNSLKPEDTAVYYCAKGTSRGQGTQVTVSS
modifications: Nanobody Sequence
On to B11, for which the Kon in assay [1] was 1.16 10^5M^−1s^−1; in assay [2] it was 0.17 10^5M^−1s^−1.
